Test results as given in article PMC8159160 (Journal of medicinal chemistry, 2021).

What was measured:
[1] = mouse, iv, 15 mg/kg
[2] = system: NEDD8 transfer to cullin substrates (reconstituted NEDD8 cascade); conditions: read-out: IC50, transfer of FAM-labeled NEDD8 to cullin substrates; fully reconstituted NEDD8 cascade (pulse-chase)
HCC95 cells = conditions: 10 μM, colonies counted at 10 days
mice = conditions: mouse, in vivo
[3] = mouse, microsomes

In the case of `CCN1C(=O)[C@@H](NC(=O)c2cccc(C)c2)[C@@H](c2ccc(F)cc2)c2c(C)nn(-c3ccccc3)c21` (relative stereo) [Compound 2, N-(rel-(4S,5S)-7-ethyl-4-(4-fluorophenyl)-3-methyl-6-oxo-1-phenyl-4,5,6,7-tetrahydro-1H-pyrazolo[3,4-b]pyridin-5-yl)-3-methylbenzamide], the “murine plasma CLIV” value [1] is reported as 86.5 mL/min/kg.

For `CCN1C(=O)[C@@H](NC(=O)c2cccc(C(F)(F)F)c2)[C@@H](c2ccc(F)cc2)c2c(CN)nn(-c3ccccc3)c21` (relative stereo) [Compound 40, N-(rel-(4S,5S)-3-(aminomethyl)-7-ethyl-4-(4-fluorophenyl)-6-oxo-1-phenyl-4,5,6,7-tetrahydro-1H-pyrazolo[3,4-b]pyridin-5-yl)-3-(trifluoromethyl)benzamide], the IC50 [2] was 110 nM, the “inhibition of colony formation” value (HCC95 cells) was “inhibited colony formation completely” and the “tolerability / adverse reactions” value (mice) was “well tolerated”.

In the case of `Cc1nn(-c2ccccc2)c2c1[C@H](c1ccc(F)cc1)[C@H](NC(=O)c1cccc(C(F)(F)F)c1)C(=O)N2CCO` [Compound 19], the “oxidative/microsomal metabolic stability (in words)” value [3] is reported as “retains metabolic stability”.

For `CCCn1nc(C)c2c1N(CC)C(=O)[C@@H](NC(=O)c1cccc(C(F)(F)F)c1)[C@H]2c1ccc(F)cc1` [Compound 22], the “oxidative/microsomal metabolic stability (in words)” value [3] was “reduction in metabolic stability”.

For `CCN1C(=O)[C@@H](NC(=O)c2cccc(C(F)(F)F)c2)[C@@H](c2ccc(F)cc2)c2c(C)nn(C3CC3)c21` [Compound 24], the “oxidative/microsomal metabolic stability (in words)” value [3] was “reduction in metabolic stability”.

With `CCCCN1CCC(N(Cc2ccccc2)C(=O)Nc2ccc(Cl)c(Cl)c2)CC1` [NAcM-OPT, reference compound] the “inhibition of colony formation” value (HCC95 cells) was “equally efficacious”.
